For series [1] the following is noted: 3.6 mg/kg every 3 weeks.

For T-DM1, the “maximum tolerated dose (MTD)” value (IV infusion every 3 weeks) is recorded as 3.6 mg/kg. The “DLT (Dose-Limiting Toxicity): patients with Grade 4 thrombocytopenia” value (treated at 4.8 mg/kg) is recorded as 2 of 3. In addition, the “patients requiring dose reduction” value in series [1] is recorded as 3 out of 112.

(Values after patent US8663643B2, “Combinations of an anti-HER2 antibody-drug conjugate and chemotherapeutic agents, and methods of use” (Genentech, Inc., priority 2008, dated 2014).)
